Reference: ChEMBL document CHEMBL5537137, “Design, synthesis and biological evaluation of biaryl amide derivatives against SARS-CoV-2 with dual-target mechanism” (Eur J Med Chem, 2024)

How the values were obtained:
[1] = Cytotoxicity against human NCI-H460 cells incubated for 72 hrs by CCK-8 assay
[2] = biological target: T1, Replicase polyprotein 1ab (Severe acute respiratory syndrome coronavirus 2, UniProt P0DTD1)
[3] = biological target: T1, Replicase polyprotein 1ab; remark: listed apart in the source
Human coronavirus OC43 = assay: microbe, parasite or virus in culture; settings: Betacoronavirus 1, VR-1558, NCI-H460, 72 h
A549 = assay: cells; settings: Homo sapiens, A549, 72 h
in vitro [4] = settings: human, Huh7.5 cells
in vitro [5] = settings: human, Huh-7 cells

SMILES: CN(C)C1CN(Cc2ccc(NC(=O)c3ccc(OCCC(F)(F)F)c([N+](=O)[O-])c3)cc2C(F)(F)F)C1
- CC50 at 72 h [1]: 67 µM
- IC50 [2]: 38.3 µM
- Kd [3]: 11.8 µM
- EC50 (Human coronavirus OC43): 2.13 µM
- CC50 (A549): > 100 µM
- CC50 at 72 h (in vitro [4]): > 50 µM
- CC50 at 72 h (in vitro [5]): > 50 µM
